Experimental data from PubChem BioAssay (NCI).
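Each compound was tested at five concentrations against cells in 96-well plates for 48 hours. At the TGI there is no net growth.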

Columns and labels:
Assay in all cases: DTP human tumour cell line panel, 48 h
NCI-H23 lung = test system: NCI-H23 lung
NCI/ADR-RES ovarian = test system: NCI/ADR-RES ovarian
EKVX NSCLC = test system: EKVX NSCLC
HCC-2998 colon = test system: HCC-2998 colon
SF-295 CNS = test system: SF-295 CNS
U251 CNS = test system: U251 CNS
SR leukemia = test system: SR leukemia
HT29 colon = test system: HT29 colon
MDA-MB-435 = test system: MDA-MB-435
NCI-H322M lung = test system: NCI-H322M lung
MOLT-4 leukemia = test system: MOLT-4 leukemia
UACC-257 melanoma = test system: UACC-257 melanoma
OVCAR-4 ovarian = test system: OVCAR-4 ovarian
SK-OV-3 ovarian = test system: SK-OV-3 ovarian
DU-145 prostate = test system: DU-145 prostate
RPMI-8226 leukemia = test system: RPMI-8226 leukemia
HS 578T breast = test system: HS 578T breast
NCI-H522 lung = test system: NCI-H522 lung
T-47D breast = test system: T-47D breast
SW-620 colon = test system: SW-620 colon
SN12C renal = test system: SN12C renal
OVCAR-8 ovarian = test system: OVCAR-8 ovarian
ACHN renal = test system: ACHN renal
SNB-75 CNS = test system: SNB-75 CNS
CAKI-1 renal = test system: CAKI-1 renal
SK-MEL-28 melanoma = test system: SK-MEL-28 melanoma
KM12 colon = test system: KM12 colon
MCF7 breast = test system: MCF7 breast
BT-549 breast = test system: BT-549 breast
786-0 renal = test system: 786-0 renal
SK-MEL-5 melanoma = test system: SK-MEL-5 melanoma
OVCAR-5 ovarian = test system: OVCAR-5 ovarian
UO-31 renal = test system: UO-31 renal
A498 renal = test system: A498 renal
RXF 393 renal = test system: RXF 393 renal
HCT-15 colon = test system: HCT-15 colon
OVCAR-3 ovarian = test system: OVCAR-3 ovarian
COLO 205 colon = test system: COLO 205 colon
SNB-19 CNS = test system: SNB-19 CNS
PC-3 prostate = test system: PC-3 prostate
SF-268 CNS = test system: SF-268 CNS
HL-60(TB) leukemia = test system: HL-60(TB) leukemia
IGROV1 ovarian = test system: IGROV1 ovarian
LOX IMVI melanoma = test system: LOX IMVI melanoma
HOP-62 NSCLC = test system: HOP-62 NSCLC
UACC-62 melanoma = test system: UACC-62 melanoma
CCRF-CEM leukemia = test system: CCRF-CEM leukemia
A549 NSCLC = test system: A549 NSCLC
TK-10 renal = test system: TK-10 renal
MALME-3M melanoma = test system: MALME-3M melanoma
K-562 leukemia = test system: K-562 leukemia
HCT-116 colon = test system: HCT-116 colon
SK-MEL-2 melanoma = test system: SK-MEL-2 melanoma
MDA-MB-231 breast = test system: MDA-MB-231 breast
M14 melanoma = test system: M14 melanoma
KM20L2 colon = test system: KM20L2 colon
NCI-H460 lung = test system: NCI-H460 lung
HOP-92 NSCLC = test system: HOP-92 NSCLC
DMS 273 small cell lung = test system: DMS 273 small cell lung
DLD-1 colon = test system: DLD-1 colon
M19-MEL melanoma = test system: M19-MEL melanoma
SF-539 CNS = test system: SF-539 CNS
SNB-78 CNS = test system: SNB-78 CNS
HOP-18 NSCLC = test system: HOP-18 NSCLC
LXFL 529 NSCLC = test system: LXFL 529 NSCLC
XF 498 CNS = test system: XF 498 CNS
DMS 114 small cell lung = test system: DMS 114 small cell lung
RXF-631 renal = test system: RXF-631 renal

Measured: TGI

O=C(CC(=O)c1ccccc1)OC1CN2CCC1CC2 (configuration not stated)
not listed: KM20L2 colon | NCI-H460 lung | HOP-92 NSCLC | DMS 273 small cell lung | DLD-1 colon | M19-MEL melanoma | SF-539 CNS | SNB-78 CNS | HOP-18 NSCLC | LXFL 529 NSCLC | XF 498 CNS | DMS 114 small cell lung | RXF-631 renal
> 100 µM: all other assays above

CCN(CC)C(=O)Oc1ccc(/C=N/O)nc1
not listed: NCI/ADR-RES ovarian | HCC-2998 colon | MDA-MB-435 | DU-145 prostate | RPMI-8226 leukemia | HS 578T breast | T-47D breast | MCF7 breast | BT-549 breast | PC-3 prostate | MDA-MB-231 breast
> 100 µM: all other assays above
